From PMC8836279, “The T850D Phosphomimetic Mutation in the Androgen Receptor Ligand Binding Domain Enhances Recruitment at Activation Function 2” (International Journal of Molecular Sciences, 2022)

Experiments:
AR T850D [1] = target: T1, AR T850D (Homo sapiens, UniProt P10275, T851D); experiment: Whole-cell ligand dissociation assay in COS-7 cells; settings: 5 nM radioligand, then 10,000-fold excess of R1881, tested as the radiolabelled form
AR WT [2] = target: T2, AR WT (Homo sapiens, UniProt P10275); experiment: as above; settings: 5 nM radioligand, then 10,000-fold excess of R1881, tested as the radiolabelled form
AR T850D [3] = target: T1, AR T850D; experiment: Whole-cell competition ligand binding assay in COS-7 cells; settings: tested as the radiolabelled form
AR WT [4] = target: T2, AR WT; experiment: as above; settings: mean ± SE, tested as the radiolabelled form

## C[C@]1(O)CC[C@H]2[C@@H]3CCC4=CC(=O)CCC4=C3C=C[C@@]21C
AR T850D [1]
  dissociation half-time t1/2: 121 min and 120.8 (±21.7) min
AR WT [2]
  dissociation half-time t1/2: 126 min and 126.4 (±21.4) min
AR T850D [3]; mean ± SE
  Bmax: 17,849 (±959) cpm
AR T850D [3]
  increase of maximal binding, AR T850D vs. AR WT: approximately 50%
AR WT [4]
  Bmax: 11,905 (±488) cpm

Values joined by “and” are separate entries in the source; they are usually repeats but may differ in a detail not shown here. Equal values may be shown once.
